Experimental data reported in patent publication US20060167229A1, “Biologically active peptide conjugates” (priority 2002, published 2006).
Several values for one entry are separate records, joined by “and”; a condition that tells them apart may be missing. Identical values can stand only once.

Assays:
[1] = test system: interferon (IFN); set-up: species or system BALB/c mice; details: mouse, in vivo, ip
[2] = test system: NK cell; assay: NK cell activity in mice with ascitic fluid type liver cancer H22; assay type: in vivo, BALB/c mice; details: controls: IL-2, IFN-γ 3 × 10^5 IU/kg, cyclophosphamide 20 mg/kg, saline 24.0 ± 8.2
Method: (§1) Healthy BALB/c mice were randomised into peptide group, rmIFN-γ group, rhIL-2 group, and saline group, 15 mice per group, and prepared into H22 carrying mice model as described in section Method 3. After implantation of the cancer cells, the test substances were administered for 15 days, the mice were killed by cervical dislocation. The spleen was isolated aseptically and manually dispersed in cold D-Hank's solution using an injection needle. The dispersed cell suspension was further sieved through a 100-gauge 150 μm diameter stainless steel sieve. After centrifugation at 200 g for 10 minutes, the supernatant was discarded. The cell pellet was re-suspended in 10 volume of Tris-NH4Cl buffer and then kept standing still for 10 minutes at room temperature. The suspended cells were collected by centrifugation at 150 g for 10 minutes. The cells were washed 2-4 times with cold D-Hank's solution by re-suspending and collecting by centrifugation with condition as described above. The washed cells were then diluted to the desired cell densities by RPMI-1640 culture medium, containing 10% fetal bovine serum.
Mice spleen cells were prepared to 4×10^6/ml as described in section 4.1 above. […]
Samples were centrifuged at 150 g for 10 minutes to collect the cells. […] An ELISA reader was used to obtain OD570 nm of each well referenced at 630 nm. […]

[3] = test system: mononuclear phagocyte; assay: Carbon particle clearance test, phagocytosis function; assay type: in vivo, BALB/c mice; set-up: key: α = cube root of K × (body weight ÷ liver+spleen weight); details: healthy mice, saline 5.1 ± 0.6
Method: On the next day after the last test substance administration (day 16), the mice were injected with […] body weight India ink (5 times dilution with normal saline) from the tail vein.
One minute and five minutes after Indian ink injection, 20 μl blood was obtained from the eye canthus with a heparinized tubing. The blood was mixed with 2 ml 0.1% w/v Na2CO3 and then OD680 nm obtained. The outline clear index K was calculated by the following formula: K=(lgA1−lgA2)÷(t2−t1)
(§2) One day after the last test substance administration (day 16), the liver, spleen, and thymus gland were separated and blotted dry with filter paper and weighed. The phagocytosis index α was calculated as below: α=(^3√{square root over ( )}K)(W÷WLS)

[4] = test system: T lymphocyte; assay: T lymphocyte transformation in mice with ascitic fluid type liver cancer H22; assay type: in vivo, BALB/c mice; details: controls: rhIL-2, rmIFN-γ 3 × 10^5 IU/kg, cyclophosphamide 20 mg/kg, saline 1.25 ± 0.07
Method: as §1, with “serum. […]” for “serum.”
50 μl/well MTT of 1 mg/ml in RPMI-1640 was added to the cell pellet and the cells re-suspended by shaking for 2 minutes. […] Use an ELISA reader to obtain OD570 nm of each well referenced at 630 nm. […]

[5] = test system: S180 sarcoma; assay: Growth of transplanted S180 sarcoma; assay type: in vivo, BALB/c mice; details: controls: IL-2, IFN-γ 3 × 10^5 IU/kg, cyclophosphamide 20 mg/kg
Method: Intraperitoneal injection, once per day. […] Treatment of all groups with testing substance lasted for 30 days or until the animal died unless otherwise specified.
Stock S180 sarcoma cells were incubated in DMEM/F12 medium supplemented with 10% fetal bovine serum, 37° C., 5% CO2 for 72 hrs, then washed 3-4 times with Hank's solution at room temperature. Adjust the cell concentration to 1-2×10^9 per litre with Hank's solution. […] The mice were killed by cervical vertebra dislocation. Vigorously growing and non-disrupted tumor masses were harvested and washed clean with sterile saline. The tissue was dispersed in saline to a homogenous cell suspension, in a ratio of 1 g tissue to 4 ml saline. The sarcoma bearing mice model was prepared with an injection of 0.2 ml cell suspension through the armpit. Administration of test substance treatment started as described in section Method 1.
2.2 The Tumor Growth Inhibition Index was Calculated According to the Following Formula: Tumor growth inhibition index=(mean tumor weight of control group−mean tumor weight of treatment group)÷mean tumor weight of control group 3.

[6] = test system: spleen; assay: Immunity organ weight test, spleen index; assay type: in vivo, BALB/c mice; details: healthy mice, saline 0.53 ± 0.05
Method: as §2
Spleen index (%)=(spleen weight/body weight)×100%

[7] = peptide 0.5 μg/kg/day i.p. 15 days (IFN-γ, IL-2 3×10^5 IU/kg/day)

IL-2: recombinant human IL (rhIL)-2, Shanghai Huaxin Biotech Inc.; positive control
activity of T lymphocyte in secreting IFN, X ± SD (IU) [1]: 120 ± 13 IU and 113 ± 17 IU and 105 ± 14 IU and 107 ± 13 IU
NK activity index (%) [2]: 26.0 ± 9.0%
X ± SD (phagocytotic index) [3, 7]: 5.7 ± 0.8
X ± SD (phagocytotic index) ([3]; peptide 5 μg/kg/day i.p. 15 days (IFN-γ, IL-2 3×10^5 IU/kg/day)): 5.7 ± 0.8
X ± SD (phagocytotic index) ([3]; peptide 50 μg/kg/day i.p. 15 days (IFN-γ, IL-2 3×10^5 IU/kg/day)): 5.7 ± 0.8
X ± SD (phagocytotic index) ([3]; peptide 500 μg/kg/day i.p. 15 days (IFN-γ, IL-2 3×10^5 IU/kg/day)): 5.7 ± 0.8
Stimulation index [4]: 1.46 ± 0.21
Tumor inhibition index (%) [5]: 46.2%
Tumor weight ([5]; saline 1.29 ± 0.50): 0.69 ± 0.37 g
weight of spleen (spleen index), X ± SD (%) ([6]; Table 28, peptide 5 μg/kg/day (so in the source) i.p. 15 days (IFN-γ, IL-2 3×10^5 IU/kg/day)): 0.62 ± 0.07%
weight of spleen (spleen index), X ± SD (%) [6, 7]: 0.62 ± 0.07%
